Chains of the proteins cited; added tags and fusions are not shown.
UniProt Q99720, whole entry: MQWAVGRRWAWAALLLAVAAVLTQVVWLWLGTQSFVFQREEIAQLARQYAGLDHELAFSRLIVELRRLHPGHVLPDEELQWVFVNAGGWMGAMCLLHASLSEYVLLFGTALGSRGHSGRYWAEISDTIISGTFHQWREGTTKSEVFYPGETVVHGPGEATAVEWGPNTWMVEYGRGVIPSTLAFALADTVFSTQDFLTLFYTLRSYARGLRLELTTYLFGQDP

According to US10072008B2, “Spiro-isoquinoline-3,4′-piperidine compounds having activity against pain” (LABORATORIOS DEL DR. ESTEVE S.A., priority 2015, dated 2018):

Biological target: human σ1 receptor (Homo sapiens (Human), UniProt Q99720)
Assay: Human σ1 receptor radioligand assay ([3H](+)-pentazocine, transfected HEK-293 membranes)
Conditions: binding to the σ1 receptor expressed as Ki, [3H](+)-pentazocine 5 nM
Description: Human σ1 Receptor Radioligand Assay
To investigate binding properties of test compounds to human σ1 receptor, transfected HEK-293 membranes and [^3H](+)-pentazocine (Perkin Elmer, NET-1056), as the radioligand, were used. The assay was carried out with 7 μg of membrane suspension, 5 nM of [^3H](+)-pentazocine in either absence or presence of either buffer or 10 μM Haloperidol for total and non-specific binding, respectively. Binding buffer contained Tris-HCl 50 mM at pH 8. Plates were incubated at 37° C. for 120 minutes. After the incubation period, the reaction mix was then transferred to MultiScreen HTS, FC plates (Millipore), filtered and plates were washed 3 times with ice-cold 10 mM Tris-HCL (pH 7.4). Filters were dried and counted at approximately 40% efficiency in a MicroBeta scintillation counter (Perkin-Elmer) using EcoScint liquid scintillation cocktail

Ki: < 500 nM
Compound: CC(=O)N1Cc2ccccc2CC12CCN(CCc1ccccc1)CC2 [Example 5, 1-[1′-(2-Phenylethyl)-1H-spiro[isoquinoline-3,4′-piperidine]-2(4H)-yl]ethanone]
